Consider 87 compounds from published antibiotic growth screens (doi:10.1038/s41589-023-01349-8).

The other results are listed elsewhere or left out.

The test concerns A. baumannii ATCC 17978. Description: relative growth (fraction of control); higher = less inhibition. The settings on record: 50 µM.
`CC(C)(C)C(=O)OCOP(=O)(COCCn1cnc2c(N)ncnc21)OCOC(=O)C(C)(C)C` gave a relative growth of 1.2.

`C[C@H]1CN([C@@H](C)CO)S(=O)(=O)c2ccc(C#Cc3ccccc3)cc2O[C@@H]1CN(C)S(=O)(=O)c1ccccc1F` returned a relative growth of 0.881. Next, `CO/N=C(/C(=O)N[C@@H]1C(=O)N2C(C(=O)[O-])=C(CSc3nc(=O)c([O-])nn3C)CS[C@H]12)c1csc(N)n1.O.O.O.[Na+].[Na+]`: 0.769; `COc1ccccc1N1CCN(CC(O)COc2cccc3ccccc23)CC1` (configuration not stated): 0.865. `C/C(Cc1ncn(-c2cc(C)on2)n1)=N\O` came in with a relative growth of 0.925. Consider `C[C@H](O)C#Cc1ccc2c(c1)O[C@@H](CN(C)C(=O)CN(C)C)[C@@H](C)CN([C@H](C)CO)S2(=O)=O`, for which the relative growth came out at 1.01. Next, `CCNC(=S)NCC1CC1`: 1.1; `NCCNC1=NS(=O)(=O)c2ccccc21`: 1.03; `CCCN(CCC)C(=O)C(CCC(=O)O)NC(=O)c1ccccc1` (configuration not stated): 1.18.

For the compound `NNCCc1ccccc1.O=S(=O)(O)O`, the relative growth came to 0.223. On to `NNC(=O)c1ccc2c(=O)[nH][nH]c(=O)c2c1`, for which the relative growth was 1.05.

On to `CN(CC(=O)O)S(=O)(=O)c1ccc(F)cc1`, for which the relative growth stood at 0.881.

As to `CCN(CC)CCOc1ccc(/C(=C(\Cl)c2ccccc2)c2ccccc2)cc1.O=C(O)CC(O)(CC(=O)O)C(=O)O`, the relative growth amounted to 0.688.

`CCCCC[C@H](CC(=O)O)C(=O)O` registered a relative growth of 1.17. Regarding `C[C@H](CO)N1C[C@H](C)[C@H](CN(C)C(=O)Cc2cccnc2)Oc2cc(C#CC3(O)CCCC3)ccc2S1(=O)=O`, the relative growth came out at 0.939. `CN(C)Cc1cn(CC[C@H]2CC[C@H](NS(=O)(=O)c3ccccc3)[C@@H](CO)O2)nn1` displayed a relative growth of 1.21.

On to `C[C@H]1c2cccc(O)c2C(=O)C2=C(O)[C@]3(O)C(=O)C(C(N)=O)=C(O)[C@@H](N(C)C)[C@@H]3[C@@H](O)[C@@H]21.Cl`, for which the relative growth was found to be 0.177. Next, `COCC#Cc1ccc2c(c1)O[C@@H](CN(C)C(=O)COC)[C@@H](C)CN([C@@H](C)CO)S2(=O)=O`: 0.924; `CC(C)C(=O)Oc1ccc(CO)cc1[C@H](CCN(C(C)C)C(C)C)c1ccccc1.O=C(O)/C=C/C(=O)O`: 1.07; `COc1cccc(NC(=O)N[C@@H]2CC[C@@H](CC(=O)N3CCOCC3)O[C@@H]2CO)c1`: 1.09.

Turning to `CC(C)[C@@H](N)c1nc2ccccc2[nH]1`, the relative growth turned out to be 0.95. Turning to `CO[C@@H]1CN(C)C(=O)c2cc(NC(=O)C3CCOCC3)ccc2OC[C@H](C)N(Cc2cccnc2)C[C@H]1C`, the relative growth was 0.992. In the case of `CC(C)(Sc1cc(C(C)(C)C)c(O)c(C(C)(C)C)c1)Sc1cc(C(C)(C)C)c(O)c(C(C)(C)C)c1` it was 1.39. In the case of `COc1cc2c(cc1OC)CC(=O)N(CCCN(C)C[C@H]1Cc3cc(OC)c(OC)cc31)CC2.Cl` it was 1.06.

Take `CC(=O)N[C@H]1C(=O)SC1(C)C`: the relative growth was determined as 0.975. Compound `NCCN1CCO[C@@H](CC(=O)Nc2cc(Cl)cc(Cl)c2)C1=O` had a relative growth of 1.01. Regarding `NNC(=O)CCc1ccccc1`, the relative growth turned out to be 0.929. Next, `N/C(=N/O)c1cnc2n(c1=O)CCS2`: 1.02. Compound `CN(C)CCCNC(=O)[C@@H]1c2ccccc2C(=O)N(Cc2cc(C(F)(F)F)cc(C(F)(F)F)c2)[C@H]1c1ccc(CO)cc1` showed a relative growth of 0.963. In the case of `Cc1cc(C)c2nnc(SCC(=O)O)n2n1` it was 0.94; in that of `C[C@@H]1CN([C@@H](C)CO)S(=O)(=O)c2ccc(C#Cc3cccc(F)c3)cc2O[C@@H]1CN(C)S(=O)(=O)c1ccccc1F`, 1.28. Next, `CS(=O)(=O)CCNCc1ccc(-c2ccc3ncnc(Nc4ccc(OCc5cccc(F)c5)c(Cl)c4)c3c2)o1`: 1.14. In the case of `C[C@@H]1CN([C@H](C)CO)S(=O)(=O)c2ccc(C#Cc3cccnc3)cc2O[C@H]1CN(C)C(=O)CN(C)C` it was 0.936; in that of `NCc1cn2cc(Cl)ccc2n1`, 1.11; in that of `CCCCC(=O)C1CCCC=C1C(=O)O` (configuration not stated), 0.881. `CC1(C)S[C@@H]2[C@H](NC(=O)Cc3ccccc3)C(=O)N2[C@H]1C(=O)[O-].[K+]` returned a relative growth of 0.447. As for `C[C@H]1CN([C@@H](C)CO)S(=O)(=O)c2ccc(C#Cc3ccccc3)cc2O[C@@H]1CN(C)C(=O)c1ccccn1`, the relative growth is 0.892.

`CCS(=O)(=O)Nc1ccc2c(c1)C(=O)N(C)C[C@@H](OC)[C@@H](C)CN(Cc1ccccn1)[C@H](C)CO2` came in with a relative growth of 0.937.

`Cc1cn2c(nc1=O)O[C@@H]1C[C@H]2O[C@@H]1CO` yielded a relative growth of 1.02. For `CCC(=O)c1ccc(O)cc1`, the relative growth is 0.965. `C[C@H]1CC2C([C@@H](O)C[C@@]3(C)C2CC[C@]3(O)C(=O)COC(=O)CCC(=O)[O-])[C@@]2(C)C=CC(=O)C=C12.[Na+]` (some centres not stated) yielded a relative growth of 0.958. Next, `Oc1ccc(Cl)c2cccnc12`: 0.182. Compound `C=C1[C@H](CO)[C@@H](O)C[C@@H]1n1cnc2c(=O)[nH]c(N)nc21.O` yielded a relative growth of 1.03. As to `Nc1ncnc(NCc2cccnc2)c1[N+](=O)[O-]`, the relative growth worked out at 0.918. Next, `C[C@H]1[C@H](C)CC[C@]2(C(=O)O)CC[C@]3(C)C(=CCC4[C@@]5(C)C[C@@H](O)[C@H](O)[C@@](C)(CO)C5[C@H](O)C[C@]43C)[C@H]12` (some centres not stated): 0.797; `O=C1NC(=O)[C@@H](c2ccccc2)N1`: 0.89; `COc1cc(O)c2c(=O)c(O)c(-c3ccc(O)c(O)c3)oc2c1`: 0.937. Next, `CC(=O)NO`: 1.11; `O=C(CN1CCOCC1)N[C@@H]1CC[C@@H](CCn2cc(C3CCCC3)nn2)O[C@H]1CO`: 0.975. On to `CC(=O)N[C@@H](CCC(N)=O)C(=O)O`, for which the relative growth was determined as 0.968. Take `COc1ccc(-c2c(O)c3c(OC)c4c(cc3oc2=O)OC(C)(C)C=C4)cc1`: the relative growth is 0.965.

For the compound `C[C@@H](O)[C@@H](O)[C@H]1CNc2[nH]c(N)nc(=O)c2N1`, the relative growth stood at 0.959. For `C=CC[C@H](CC(=O)NCCO)C(=O)NC[C@H](OC(=O)[C@H](CC=C)CC(=O)OC(C)(C)C)c1ccccc1`, the relative growth is 0.765. `CC(C)(C)N1C[C@H](C(=O)O)CC1=O` displayed a relative growth of 1.07.

In the case of `CC(C)(Oc1ccc(Cl)cc1)C(=O)O`, the relative growth is 1.15. In the case of `C[C@@H]1CN([C@@H](C)CO)C(=O)CCCn2nncc2CO[C@H]1CN(C)C(=O)Nc1ccc(N2CCN(C)CC2)cc1` it was 1.01. On to `COCC(=O)N1C[C@@H](C)[C@@H](OC)CN(C)C(=O)c2cc(NC(=O)c3ccc(OC)cc3)ccc2OC[C@@H]1C`, for which the relative growth stood at 1. Next, `O=c1[nH]cnc2c1ncn2C1CC[C@@H](CO)O1` (some centres not stated): 1.07; `C[C@H]1CN([C@@H](C)CO)S(=O)(=O)c2ccc(C#Cc3ccc(F)cc3)cc2O[C@H]1CN(C)S(C)(=O)=O`: 1.03; `Cc1nc2c(C)cc(N)cn2n1`: 0.971. Next, `Cc1ccc(CNc2ccc3c(c2)ncn3C2CCCCC2)cc1`: 0.804; `CC(C)NC(=O)N[C@H]1C=C[C@@H](CC(=O)NCCN2CCCC2)O[C@@H]1CO`: 1.04. In the case of `COc1ccc(NC(=O)N[C@@H]2CC[C@H](CCNC(=O)CN3CCOCC3)O[C@H]2CO)cc1` it was 0.809.

On to `O=C(C[C@H]1C[C@H]2c3cc(NC(=O)c4ccc5c(c4)OCO5)ccc3O[C@H]2[C@H](CO)O1)NCCN1CCCCC1`, for which the relative growth was 1. Next, `O=C1c2ccccc2[C@](Cc2ccccc2I)(C(=O)NCc2ccccc2)[C@H](c2ccc(CO)cc2)N1C1CCCCC1`: 1.16; `NCC1CCC(C(=O)O)CC1` (configuration not stated): 0.94.

Turning to `CCCCCCCCCCC[C@@H](C[C@@H]1OC(=O)[C@H]1CCCCCC)OC(=O)[C@H](CC(C)C)NC=O`, the relative growth came to 1.08. Take `C=CCNC(=O)C(=O)NC[C@H]1OCCCN1S(=O)(=O)c1ccccc1`: the relative growth came to 1.12. As to `CN(C)C(=O)C[C@@H]1CC[C@H](NC(=O)C2CC2)[C@H](CO)O1`, the relative growth was 0.905. Next, `C=C(C(=O)O[C@H]1CC=C(C)C[C@H](O)[C@H]2[C@H](C)C(=O)O[C@@H]2/C=C/1C)[C@@H]1CCC(=C)[C@@H]2C[C@H](O[C@@H]3O[C@H](COC(=O)CC(=O)O)[C@@H](O)[C@H](O)[C@H]3O)C(=C)[C@@H]2C1`: 1.09; `C=CCOC(=O)[C@@H]1[C@H]2C(=O)O[C@H](c3ccccc3)[C@H](c3ccccc3)N2[C@H](c2ccc(OCCOC(=O)[C@@H]3C[C@@H]4C(=O)NCC(=O)N4[C@@H]3c3cccc(OCCO)c3)cc2)[C@@]12C(=O)Nc1ccccc12`: 1.16; `CN(C)C(=O)c1cccc(-c2cccc(-c3nc(C(=O)N4CCCCC4)cc4c3[C@@H](CCO)N([S@](=O)C(C)(C)C)C4)c2)c1`: 1.06.

Turning to `Cn1c(=O)c2c(ncn2CC(=O)O)n(C)c1=O`, the relative growth was determined as 1.02. `O=C(C[C@H]1CC[C@@H](NS(=O)(=O)c2ccc(F)cc2)[C@@H](CO)O1)NCc1ccc(Cl)c(Cl)c1` returned a relative growth of 0.9.

With `COc1cc(C/C=C/c2ccccc2)c(OC)cc1O`, the relative growth was 0.939. In turn, `C[C@H](O)C#Cc1ccc2c(c1)O[C@H](CN(C)C(=O)Cc1ccccn1)[C@@H](C)CN([C@@H](C)CO)S2(=O)=O` came in with a relative growth of 1.11.

On to `O=C(C[C@@H]1CC[C@@H]2[C@H](COC[C@@H](O)CN2S(=O)(=O)c2ccc(Cl)cc2)O1)NCCN1CCCC1`, for which the relative growth is 0.962. Next, `C=C1C(=O)O[C@@H]2[C@H]3O[C@]3(C)CC/C=C(\C)CC[C@@H]12`: 0.873. Compound `COc1ccc(S(=O)(=O)N(C)C[C@H]2Oc3cc(C#CC4CC4)ccc3S(=O)(=O)N([C@@H](C)CO)C[C@H]2C)cc1` had a relative growth of 1.09.

As for `O=C(O)CCCN1C(=O)c2cccc3cccc(c23)C1=O`, the relative growth came out at 1.06. As to `CCn1c2c(ccc1=O)C[C@H](N)CC2`, the relative growth was determined as 0.958. In the case of `COc1ccccc1C#Cc1ccc2c(c1)O[C@H](CN(C)Cc1cncnc1)[C@H](C)CN([C@H](C)CO)S2(=O)=O` it was 0.869. Compound `O=S(=O)(Cc1ccccc1)Nn1cnnc1` registered a relative growth of 0.898. With `O=C(O)C1CSCN1` (configuration not stated), the relative growth is 0.914.

Compound `Clc1ccc(C2=Nc3cccc4cccc(c34)N2)cc1` returned a relative growth of 1.07. In the case of `NCCC[C@H](N)CC(=O)NC1CNC(=O)[C@H]([C@H]2C[C@H](O)NC(N)=N2)NC(=O)/C(=C/NC(N)=O)NC(=O)[C@H](CO)NC(=O)[C@H](CO)NC1=O.O=S(=O)(O)O` (some centres not stated) it was 0.88; in that of `C=C1[N-]O[N+](O)=C1CN(Cc1c(C)no[n+]1[O-])OC(C)=O`, 0.9.
